In PMC11665553, “12-Lipoxygenase inhibition delays onset of autoimmune diabetes in human gene replacement mice” (JCI Insight, 2024):

Experiment: Pharmacokinetics after single p.o. dose in NOD.ShiLt/J mice (plasma LC-MS/MS)
Conditions: 30 mg/kg p.o., mean ± SD

**Q.** With `COc1cccc(CNc2ccc(S(=O)(=O)Nc3nc4ccccc4s3)cc2)c1O` [VLX-1005] as the compound, how does the tmax read?
**A.** 15 ± 0 min
